Ab-91 heavy chain CDR variants: yeast mating affinities

Data: MIT Lincoln Laboratory AlphaSeq set, Engelhart et al. 2022, doi:10.1038/s41597-022-01779-4, as distributed in FLAb.

Target peptide (SARS-CoV-2 spike, HR2 region): PDVDLGDISGINAS

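Phage display of a naive human antibody library on the peptide gave the parent. Library AAYL51 holds single substitutions and randomly drawn double and triple substitutions in the CDRs. AlphaSeq pools MATa yeast showing the antibodies with MATalpha yeast showing the peptide. Mating (16 h, 30 °C) was followed by selection of diploids and sequencing of their barcodes. A regression on co-assayed BCL2-family reference pairs converts the normalised counts of each replicate to an apparent Kd. There are three technical replicates.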

Ab-91 is the parent antibody, in scFv form: VL, then three GGGGS repeats, then VH. The light chain is unchanged in all variants.
VL: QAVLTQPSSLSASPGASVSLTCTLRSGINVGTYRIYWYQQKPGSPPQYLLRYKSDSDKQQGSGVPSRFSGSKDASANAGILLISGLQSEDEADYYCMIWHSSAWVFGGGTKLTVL
VH: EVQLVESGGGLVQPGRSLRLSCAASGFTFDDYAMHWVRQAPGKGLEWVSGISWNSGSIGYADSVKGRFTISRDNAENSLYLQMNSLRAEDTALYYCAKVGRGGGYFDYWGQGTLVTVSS

Positions count from residue 1 of the parent VH; F29Q puts Q in place of F.
Scale: log10 of Kd in nM, estimated from mating counts; low values are strong binders.
Replicates are averaged; those with no signal do not enter the mean.
"nd" marks a missing value. The strain was present, yet no cells mated with the target were sequenced in that replicate, which points to weak or no binding.
Nonspecific signal, from three strains lacking the peptide, appeared in 21% of pairings of library AAYL51, centred on 4.54 (5% of these signals below 3.26); values are not corrected for it. For each scFv, signals with the empty controls are counted beside the result, with their mean in brackets.
For reference, the parent read 1.86 as the reference entry and 0.88 as a member of this library.

| # | changes | log10 Kd (nM) by replicate | mean, log10 nM | signal with controls |
|---|---|---|---|---|
| 1 | F29Q/V99M | nd / nd / nd | nd | 0 of 9 |
| 2 | I51L/G56H | 3.88 / 5.75 / nd | 4.82 | 4 of 9 (4.13) |
| 3 | D30C/D31P/G59P | nd / nd / nd | nd | 0 of 9 |
| 4 | F29V/H35W/W53K | 4.19 / nd / nd | 4.19 | 5 of 9 (3.95) |
| 5 | W53A/Y60H | nd / 4.42 / 3.86 | 4.14 | 3 of 9 (4.91) |
| 6 | D31K/S52K/G100I | 5.13 / nd / nd | 5.13 | 1 of 9 (3.90) |
| 7 | A33L/W53I/S63V | 4.00 / nd / nd | 4.00 | 1 of 9 (3.41) |
| 8 | G26Y/S52H/G102I | nd / nd / nd | nd | 1 of 9 (4.49) |
| 9 | I51C/N54M/Y108E | nd / nd / 1.81 | 1.81 | 0 of 9 |
| 10 | D30H/G59H/D107G | nd / 4.42 / nd | 4.42 | 1 of 9 (3.58) |
| 11 | F27P/S57F/V64R | 3.14 / nd / nd | 3.14 | 1 of 9 (4.48) |
| 12 | H35N/D107Y/Y108Q | nd / nd / nd | nd | 1 of 9 (3.06) |
| 13 | G26V/S52H/G56L | nd / nd / nd | nd | 0 of 9 |
| 14 | A33G/G56M | 0.33 / 0.28 / -0.18 | 0.14 | 1 of 9 (4.18) |
| 15 | D30M/H35R/Y108M | nd / nd / nd | nd | 1 of 9 (3.73) |
| 16 | G59K/V64W | nd / nd / nd | nd | 0 of 9 |
| 17 | S52K/G59I/Y105C | 4.27 / 5.40 / nd | 4.84 | 8 of 9 (4.55) |
| 18 | T28D/H35F/D62V | nd / nd / nd | nd | 0 of 9 |
| 19 | A33R/G56S/Y108L | 4.01 / 4.87 / 5.02 | 4.64 | 2 of 9 (3.84) |
| 20 | G26F/S55Q/S63H | nd / nd / nd | nd | 1 of 9 (4.11) |
| 21 | G59M/V99R/G104S | nd / nd / nd | nd | 2 of 9 (3.38) |
| 22 | F29H/Y60L/K65H | 5.01 / 5.55 / 5.42 | 5.33 | 5 of 9 (5.23) |
| 23 | F27Q/N54D/S57I | nd / nd / nd | nd | 0 of 9 |
| 24 | F27L/K65E/F106N | nd / nd / nd | nd | 0 of 9 |
| 25 | S52T/K65S/D107F | nd / nd / nd | nd | 1 of 9 (4.16) |
| 26 | F27E/A33C | nd / 4.15 / nd | 4.15 | 2 of 9 (5.05) |
| 27 | S55I/V64R/V99Y | nd / 5.35 / nd | 5.35 | 2 of 9 (3.67) |
| 28 | S63N/G102L/G103F | nd / nd / nd | nd | 1 of 9 (3.16) |
| 29 | G50N/Y105D/D107E | 5.18 / 5.03 / nd | 5.11 | 4 of 9 (5.16) |
| 30 | T28S/Y32G/G102Q | 5.24 / 5.24 / nd | 5.24 | 6 of 9 (4.76) |
| 31 | G26M/G50C/F106N | nd / nd / nd | nd | 0 of 9 |
| 32 | S52Y/Y105P/F106M | nd / nd / nd | nd | 0 of 9 |
| 33 | H35G/S63P/V64S | 4.19 / nd / nd | 4.19 | 3 of 9 (4.37) |
| 34 | N54P | 4.44 / nd / 4.06 | 4.25 | 1 of 9 (4.63) |
| 35 | F29L/Y60H/S63I | 3.98 / 4.07 / nd | 4.02 | 0 of 9 |
| 36 | A33M/G102W/Y108F | nd / nd / nd | nd | 0 of 9 |
| 37 | D31Q | nd / nd / nd | nd | 2 of 9 (4.08) |
| 38 | T28S/N54H/G104W | 4.64 / nd / nd | 4.64 | 5 of 9 (4.36) |
| 39 | D62F/G103Q/Y105T | 4.56 / nd / nd | 4.56 | 1 of 9 (4.82) |
| 40 | F27H/N54G/V64N | nd / nd / nd | nd | 1 of 9 (2.18) |
| 41 | I51E/G102P/G103R | 4.97 / nd / nd | 4.97 | 1 of 9 (4.39) |
| 42 | W53N/G56N/S63H | 4.80 / 4.53 / nd | 4.66 | 4 of 9 (4.01) |
| 43 | D31W/Y60K/R101L | nd / nd / nd | nd | 1 of 9 (4.51) |
| 44 | S55T/Y60Q/Y105K | nd / nd / nd | nd | 0 of 9 |
| 45 | G50Q/S57A | nd / 3.94 / nd | 3.94 | 2 of 9 (4.30) |
| 46 | I51F/S52L/V64A | nd / nd / nd | nd | 0 of 9 |
| 47 | G56W/R101C/Y108N | 1.40 / 1.40 / 0.69 | 1.16 | 1 of 9 (3.79) |
| 48 | G50S/S57P/I58V | nd / nd / nd | nd | 1 of 9 (3.43) |
| 49 | F29R/V64L/Y108A | nd / nd / nd | nd | 1 of 9 (4.00) |
| 50 | F29Y/D62S | 2.43 / nd / nd | 2.43 | 0 of 9 |

The 4 strongest on average among those seen in every replicate, once more:

{"changes": "A33G/G56M", "log10 Kd (nM) by replicate": "0.33 / 0.28 / -0.18", "mean, log10 nM": "0.14", "signal with controls": "1 of 9 (4.18)"}
{"changes": "G56W/R101C/Y108N", "log10 Kd (nM) by replicate": "1.40 / 1.40 / 0.69", "mean, log10 nM": "1.16", "signal with controls": "1 of 9 (3.79)"}
{"changes": "A33R/G56S/Y108L", "log10 Kd (nM) by replicate": "4.01 / 4.87 / 5.02", "mean, log10 nM": "4.64", "signal with controls": "2 of 9 (3.84)"}
{"changes": "F29H/Y60L/K65H", "log10 Kd (nM) by replicate": "5.01 / 5.55 / 5.42", "mean, log10 nM": "5.33", "signal with controls": "5 of 9 (5.23)"}